In patent EP1359152B1, “Diazabicyclic derivatives as nicotinic acetylcholine receptor ligands” (ABBOTT LABORATORIES, priority 1999, dated 2000):
Counter-ions that a name gives are not always drawn.

Protein sequences, listed by entry. Tags and fused reporters are not part of them. Residues count along the entry.
UniProt P09483, 31-630: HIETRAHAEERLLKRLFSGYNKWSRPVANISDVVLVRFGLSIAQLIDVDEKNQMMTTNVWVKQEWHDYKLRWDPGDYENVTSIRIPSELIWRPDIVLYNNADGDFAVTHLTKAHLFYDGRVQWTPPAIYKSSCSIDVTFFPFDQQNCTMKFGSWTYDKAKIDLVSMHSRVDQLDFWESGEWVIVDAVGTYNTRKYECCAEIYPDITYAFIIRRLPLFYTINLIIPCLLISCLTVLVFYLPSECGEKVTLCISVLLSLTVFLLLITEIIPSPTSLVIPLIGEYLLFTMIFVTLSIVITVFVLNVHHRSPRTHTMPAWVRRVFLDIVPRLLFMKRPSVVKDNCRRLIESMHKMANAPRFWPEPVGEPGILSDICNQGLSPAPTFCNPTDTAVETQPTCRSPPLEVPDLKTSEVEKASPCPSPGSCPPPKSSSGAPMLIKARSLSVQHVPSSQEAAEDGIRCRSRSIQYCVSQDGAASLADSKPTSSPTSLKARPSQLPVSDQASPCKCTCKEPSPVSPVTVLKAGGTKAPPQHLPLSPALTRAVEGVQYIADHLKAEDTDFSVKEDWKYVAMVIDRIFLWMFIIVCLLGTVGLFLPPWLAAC
UniProt P12390, 25-500: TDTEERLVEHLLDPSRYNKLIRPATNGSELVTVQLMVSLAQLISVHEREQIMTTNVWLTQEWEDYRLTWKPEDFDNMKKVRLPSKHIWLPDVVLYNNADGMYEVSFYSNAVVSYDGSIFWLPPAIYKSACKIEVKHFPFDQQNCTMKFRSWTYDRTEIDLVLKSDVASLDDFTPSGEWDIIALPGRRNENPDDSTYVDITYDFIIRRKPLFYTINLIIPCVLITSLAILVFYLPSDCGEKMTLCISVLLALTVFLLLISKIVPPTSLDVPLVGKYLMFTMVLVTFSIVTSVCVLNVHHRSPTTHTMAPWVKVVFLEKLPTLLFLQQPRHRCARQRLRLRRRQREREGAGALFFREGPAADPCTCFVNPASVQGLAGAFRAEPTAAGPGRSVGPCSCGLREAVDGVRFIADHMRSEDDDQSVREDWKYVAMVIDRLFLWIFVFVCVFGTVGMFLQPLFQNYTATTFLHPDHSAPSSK

Target: T1, neuronal nicotinic acetylcholine receptors (Rattus norvegicus, UniProt P09483+P12390)
T1 construct: crude synaptic membrane preparations from whole rat brain; from tissue; host or cells: whole rat brain, crude synaptic membranes
Experiment: [3H]-cytisine binding to neuronal nicotinic acetylcholine receptors, crude synaptic membranes from whole rat brain
Description: The In Vitro protocols for determination of nicotinic acetylcholine channel receptor binding potencies of ligands were determined as follows.
Washed membranes were stored at-80 °C prior to use. Frozen aliquots were slowly thawed and resuspended in 20 volumes of buffer (containing: 120 mM NaCl, 5 mM KCI, 2 mM MgCl2, 2 mM CaCl2 and 50 mM Tris-Cl, pH 7.4 @4 °C). After centrifuging at 20,000x g for 15 minutes, the pellets were resuspended in 30 volumes of buffer.
The test compounds were dissolved in water to make 10 mM stock solutions. Each solution was then diluted (1:100) with buffer (as above) and further taken through seven serial log dilutions to produce test solutions from 10^-5 to 10^-11 M.
Samples were incubated for 60 minutes at 4 °C, then rapidly filtered through Whatman GF/B filters presoaked in 0.5% polyethyleneimine using 3 x 4 mL of ice-cold buffer. The filters are counted in 4 mL of Ecolume® (ICN). Nonspecific binding was determined in the presence of 10 µM (-)-nicotine and values were expressed as a percentage of total binding. IC50 values were determined with the RS-1 (BBN) nonlinear least squares curve-fitting program and IC50 values were converted to Ki values using the Cheng and Prusoff correction (Ki=IC50/(1+[ligand]/Kd of ligand).

For `Clc1ccc(N2CC3CCC(C2)N3)nc1` [Example 19, 3-(5-chloro-2-pyridinyl)-3,8-diazabicyclo[3.2.1]octane dihydrochloride, reference compound], the Ki was greater than 10 µM.
